{"source": "patent US6664231B1", "about": "“Anti-fungal peptides” (priority 1993, dated 2003)", "key": {"[1]": {"tested_on": "C. albicans (CA-1, Strain SLU-1)", "assay": "Radial diffusion assay", "type": "cell-based, Candida albicans", "settings": "pmoles of peptide added to well to achieve a 30 mm^2 zone, PROBIT analysis, crude or purified (P′) peptide", "description": "In the radial diffusion assay procedures, the CA-1 cultures and peptide solutions were prepared as in the broth assay procedure described above. Ten mL of molten underlayer agarose comprising 3% Sabouraud Dextrose broth, 1% agarose (Pharmacia, Piscataway, N.J.), 0.02% Tween 20, and 10 mM sodium phosphate at pH 7.4, was added to polystyrene tubes and maintained in a 56° C. water bath until the addition of yeast. Tubes were cooled to approximately 45° C., yeast were added to give a final concentration of 1×10^6 CFU/mL, and the tubes were mixed again by inverting. The contents were poured into level square petri dishes and distributed evenly. […] A series of wells were punched into the hardened agarose using a sterile 3 mm punch attached to a vacuum apparatus.\nPeptides to be assayed were 2-fold serially diluted in Dulbecco's PBS (D-PBS) starting from a concentration of approximately 1 mg/mL. Five μL of each dilution were added to each well and the plates were incubated at 37° C. for 3 hours. An overlayer of 10 mL of molten agarose comprising 6% Sabouraud Dextrose broth, 1% agarose, and 10 mM sodium phosphate, pH 7.4, (at approximately 45° C.) was then added and plates were incubated overnight at 37° C. Following this overnight incubation, a dilute Coomassie solution was poured into the plates and allowed to stain for 24 hours.\nClear zones of growth inhibition around each well were measured with calipers. The actual area of growth inhibition (mm^2) was calculated by subtracting the area of the well. Table 1 below sets out the results of the radial diffusion assays for tested peptides in terms of the number of picomoles (pmol) of peptide required to establish a 30 mm^2 area of growth inhibition calculated by PROBIT analysis (e.g., calculated from regression of the linear portion of log-concentration dose-response curve, log pmol/well vs. net area of inhibition)."}, "[2]": {"tested_on": "mouse RAW 264.7 cells", "description": "(§1) An in vitro LPS neutralization screening assay for evaluation of Domain III derived peptides was developed (as described in co-owned and co-pending U.S. patent application Ser. No. 08/306,473) which provides both a measure of efficacy of each peptide (EC50) and of the toxicity/growth inhibition of each peptide (IC50).\n(§2) The cells were counted and their concentration adjusted to 2×10^5 cells/mL and 100 μL aliquots were added to each well of a 96-well microtitre plate. […] This incubation was performed in the absence or presence of peptides in varying concentrations between 25 ng/mL and 50 μg/mL. […] Cell proliferation was quantitatively measured by the addition of 1 μCi/well [^3H]-thymidine 5 hours after the time of initiation of the assay. After the 15-hour incubation, labeled cells were harvested onto glass fiber filters with a cell harvester (Inotech Biosystems, INB-384, Sample Processing and Filter Counting System, Lansing, Mich.)."}, "[3]": {"tested_on": "mouse RAW 264.7 cells incubated with E. coli O113 LPS", "description": "as §1, §2"}, "[4]": {"assay": "Serum stability, anti-fungal activity after serum incubation by radial diffusion bioassay", "type": "in vitro ADME, rat or human serum", "settings": "Activity in Serum t ½ (hr.)", "description": "For these serum stability experiments, peptides were prepared by solid phase peptide sythesis and purified to 94% or greater purity as described in Example 1. Blood was collected from metaphane anesthesized rats by aortic bleed into Vacutainer™ tubes and allowed to clot at room temperature for approximately 30 minutes, then centrifuged at 3000 rpm (about 1000×g) for 10 minutes at room temperature and the serum aspirated. In addition, frozen human serum (North American Biologics, Inc., Miami, Fla., cat. no. 2140, lot no. 94115) was thawed at room temperature and filtered through a 0.45 μm membrane before use.\nA 1 mg/mL solution of an exemplary XMP peptide to be tested was added to an equal volume of either rat or human serum described above and maintained at 37° C. At 0, 1, 2, and 4 hours, 100 μL were removed and processed by solid phase extraction for HPLC analysis as follows. Serum samples were prepared for HPLC using C-18 Sep-Pak cartridges (1 mL cartridge with 100 mg of sorbent, Waters Corp., Milford, Mass.). One hundred μL of serum sample were added to an equal volume of 1% TFA and mixed for 30 seconds on a Vortex mixer. The sample was then applied to a C-18 Sep-Pak cartridge that had been conditioned by washing with 1 mL of methanol followed by 1 mL Milli-Q water. Weakly reed components were eluted by washing with 1 mL of 0. 1% TFA. The bound peptide was eluted with two volumes of 250 μL 80% acetonitrile/0.065% TFA.\nThe peptides identified and purified after serum incubation as described above were subjected to N-terminal peptide sequencing performed on an Applied Biosystems Model 477A/120A sequencer and to electrospray ionization mass spectrometry (ESI/MS) performed using a VG Biotech Bio-Q Mass Spectrometer. In addition, the peptides identified and purified after serum incubation as described above were also tested for their anti-fungal activity in a radial diffusion bioassay with Candida albicans SLU-1 strain as described in Example 2."}, "[5]": {"tested_on": "Cryptococcus neoformans ATCC 13690", "type": "cell-based", "description": "(§3) The anti-fungal activity of Domain III derived peptides was evaluated against a variety of fungal species, including species of Candida. Cryptococcus, Fusarium, Trichophyton, and Aspergillus, by an additional assay protocol utilizing Alamar Blue. Alamar Blue is an indicator dye formulated to measure quantitatively the proliferation of a variety of human or animal cells, bacteria, or fungi. It consists of an oxidation-reduction (REDOX) indicator that yields a colorimetric change in response to metabolic activity. For these experiments, species of Candida and Cryptococcus were grown in Sabouraud's dextrose broth (SDB) overnight. Strains of filamentous fungi (Aspergilius, Fusanum, Trichophyton) were obtained by irrigation of a confluent culture from a petri dish. Cells were washed and adjusted to a concentration of 5.0×10^3/mL in fresh SDB. […] Controls included amphotericin B, fluconazole, ketoconazole and griseofulvin. Antifungal drugs were also diluted in the same manner. Assays were performed in 96-well microuiter plates. […] The wells to be plated were determined by OD590 readings. The lowest concentration of peptide which maintained the blue color (or OD reading) of the blank was chosen along with the next two higher concentrations. Plates were allowed to grow for 18-48 hours depending on the rate of growth of each fungus. Minimal fungicidal activity (MFC) was determined as a 99.9% killing of the starting inoculum."}, "[6]": {"tested_on": "Candida albicans (SLU-1 and ATCC strains)", "type": "cell-based", "description": "as §3"}, "[7]": {"tested_on": "Aspergillus ATCC 13073", "type": "cell-based", "description": "as §3"}, "[8]": {"tested_on": "Crytococcus Neoformans 13690", "type": "cell-based, Cryptococcus neoformans", "description": "In additional experiments, a fluorescence-activated cell sorter (FACS) based assay was developed to test the fungicidal activity of the peptides. […] Difco) agar. Several colonies were picked from the agar plate and inoculated into 5 mL of Sabouraud's Dextrose media in a sterile 10 mL polypropylene tube. The fungal cultures were incubated for about 18 hours at 30° C. […] The culture were centrifuged at 3000 rpm for 5 minutes (Sorvall RT 6000B). After centrifugation, the supernatant was decanted leaving the fungal pellets in the centrifuge tubes. The pellets were resuspended in 15 mL of SDB. Both suspensions were combined into one tube and mixed to generate a stock culture. […] After determining the concentration of the stock, appropriate dilutions were made with Sabouraud's Dextrose media to obtain 100 mL of 1×10^6 cell/mL. […] After the 1 hour incubation, all the tubes were centrifuged at 3000 rpm for 5 minutes. […] Louis, Mo.) in Dulbecco's PBS (DPBS, GIBCO, Grand Island, N.Y.) except the autofluorescence control, which was resuspended in DPBS alone. The tubes were mixed and incubated in the dark at room temperature for at least 20 minutes. […] The settings were adjusted appropriately to the following approximate parameters: Cells were analyzed (10,000 cells/tube) and their respective fluorescence determined. […] The population of dead (i.e., propidium iodide stained) fungal cells was determined by a fluorescence threshold between the negative control and positive control."}}, "data": [{"compound": "CC[C@H](C)[C@H](NC(=O)[C@H](CCCCN)NC(=O)[C@H](CCCCN)NC(=O)[C@H](Cc1c[nH]cn1)NC(=O)[C@H](Cc1ccccc1)NC(=O)[C@H](CC(C)C)NC(=O)[C@H](CCC(N)=O)NC(=O)[C@@H](NC(=O)[C@H](CC(C)C)NC(=O)[C@H](Cc1c[nH]c2ccccc12)NC(=O)CNC(=O)[C@@H](NC(=O)[C@H](CCCCN)NC(=O)[C@H](CO)NC(=O)[C@H](CCCCN)NC(=O)[C@H](CO)NC(=O)[C@@H](NC(=O)[C@H](Cc1c[nH]cn1)NC(=O)[C@@H](NC(=O)[C@H](Cc1c[nH]cn1)NC(=O)[C@@H](N)C(C)C)C(C)C)[C@@H](C)CC)C(C)C)[C@@H](C)CC)C(=O)N[C@@H](CCC(=O)O)C(N)=O", "note": "[XMP.5]", "values": [{"measurement": "C. albicans pmol/30 mm^2 zone", "setting": "[1]", "result": ">2151", "unit": "pmol/30 mm^2 zone"}, {"measurement": "IC50 (peptide concentration at which RAW cell growth was inhibited by 50%)", "setting": "[2]; concentrations tested 25 ng/mL to 50 μg/mL", "result": "not observed at the concentrations tested"}, {"measurement": "EC50 (peptide concentration at which the growth inhibitory effect of LPS was reversed by 50%)", "setting": "[3]; LPS 1 ng/mL", "result": "5.3 ± 0.6", "unit": "µg/mL"}]}, {"compound": "CC[C@H](C)[C@H](NC(=O)[C@H](C)NC(=O)[C@@H](NC(=O)CNC(=O)[C@@H](NC(=O)[C@H](CCCCN)NC(=O)[C@H](CO)NC(=O)[C@@H](N)CCCCN)C(C)C)C(C)C)C(=O)N[C@@H](CCC(N)=O)C(=O)N[C@@H](CC(C)C)C(=O)N[C@@H](Cc1ccccc1)C(=O)N[C@@H](Cc1c[nH]cn1)C(=O)N[C@@H](CCCCN)C(=O)N[C@@H](CCCCN)C(N)=O", "note": "[XMP.268]", "values": [{"measurement": "C. albicans pmol/30 mm^2 zone", "setting": "[1]", "result": 308, "unit": "pmol/30 mm^2 zone"}, {"measurement": "C. albicans pmol/30 mm^2 zone", "setting": "[1]; listed as XMP.268P′", "result": 63, "unit": "pmol/30 mm^2 zone"}, {"measurement": "half-life at 0.5 mg/mL", "setting": "[4]", "result": 15.3, "unit": "h"}]}, {"compound": "CC[C@H](C)[C@H](NC(=O)[C@H](CC(C)C)NC(=O)[C@@H](N)Cc1c[nH]c2ccccc12)C(=O)N[C@@H](CCC(N)=O)C(N)=O", "note": "[XMP.330]", "values": [{"measurement": "C. albicans pmol/30 mm^2 zone", "setting": "[1]", "result": "b (No detectable activity up to 5 μg/well)"}, {"measurement": "IC50 (toxicity/growth inhibition of peptide)", "setting": "[2]; RAW 264.7 cell growth inhibited by 50%", "result": "NA (NA for IC50 means no evidence of decreased RAW cell growth at up to 50 μg/ml)"}, {"measurement": "In Vitro LPS Neutralization EC50", "setting": "[3]; RAW 264.7 cells with E. coli O113 LPS, concentration reversing LPS growth inhibition by 50%", "result": ">50", "unit": "µg/mL"}]}, {"compound": "CC[C@H](C)[C@H](NC(=O)[C@H](CC(C)C)NC(=O)[C@H](Cc1c[nH]c2ccccc12)NC(=O)[C@@H]1CCCN1)C(=O)N[C@@H](CCC(N)=O)C(=O)N[C@@H](CC(C)C)C(=O)N[C@@H](Cc1ccccc1)C(=O)N[C@@H](Cc1c[nH]cn1)C(=O)N[C@@H](CCCCN)C(=O)N[C@@H](CCCCN)C(=O)O", "note": "[XMP.353]", "values": [{"measurement": "C. albicans pmol/30 mm^2 zone", "setting": "[1]", "result": "3,093 pmol/30 mm^2 zone"}, {"measurement": "C. albicans pmol/30 mm^2 zone", "setting": "[1]; listed as XMP.353P′", "result": 463, "unit": "pmol/30 mm^2 zone"}, {"measurement": "half-life at 0.5 mg/mL", "setting": "[4]", "result": 0.9, "unit": "h"}, {"measurement": "Minimum Fungicidal Concentration, Cryptococcus neoformans ATCC 13690", "setting": "[5]", "result": 0.63, "unit": "µg/mL"}, {"measurement": "Minimum Fungicidal Concentration, Candida albicans SLU-1", "setting": "[6]", "result": 2.5, "unit": "µg/mL"}, {"measurement": "Minimum Fungicidal Concentration, Aspergillus ATCC 13073", "setting": "[7]", "result": 12.50, "unit": "µg/mL"}, {"measurement": "Activity of Peptides on Crytococcus Neoformans 13690, IC50", "setting": "[8]", "result": 0.37, "unit": "µg/mL"}]}]}
